Data from patent publication US20230357314A1, “METHODS FOR ULTRAFAST FORMATION OF DISULFIDE BONDS IN PEPTIDES AND PROTEINS” (TECHNION RESEARCH & DEVELOPMENT FOUNDATION LIMITED, priority 2020, published 2023).

System: methicillin resistant Staphylococcus aureus (MRSA)
Details: MRSA growth after 17 h at 37° C., LB medium, absorbance at 600 nm, triplicate

SMILES | MIC [µM]
CCC[C@@H]1NC(=O)[C@H](CC(=O)O)NC(=O)[C@H](CC(=O)O)NC(=O)[C@H](CCC(=O)O)NC(=O)[C@H](CC(=O)O)NC(=O)[C@H](Cc2c[nH]c3ccccc23)NC(=O)[C@@H]2CCCN2C(=O)CNC(=O)[C@H](CC(N)=O)NC(=O)[C@@H](NC(=O)CNC(=O)[C@H](Cc2ccccc2)NC(=O)CN)CSSC[C@@H]2NC(=O)[C@H](Cc3ccc(O)cc3)NC(=O)CNC(=O)CNC(=O)[C@H](CCCCN)NC(=O)[C@H](Cc3ccc(O)cc3)NC(=O)CNC(=O)[C@H](CCCCN)NC(=O)[C@H]([C@@H](C)CC)NC(=O)[C@H](CO)NC(=O)[C@H](CCCCN)NC(=O)[C@@H]3CSSC[C@@H](C(=O)N[C@@H](Cc4ccc(O)cc4)C(N)=O)NC(=O)[C@H](CCCCN)NC(=O)[C@H](CSSC[C@H](NC(=O)[C@H](CCC(N)=O)NC1=O)C(=O)N[C@@H](Cc1c[nH]cn1)C(=O)N[C@@H](CC(N)=O)C(=O)N[C@@H](Cc1c[nH]cn1)C(=O)N3)NC(=O)[C@H](C(C)C)NC(=O)[C@H](Cc1ccccc1)NC(=O)CNC(=O)CNC(=O)[C@H](CCCCN)NC(=O)[C@H](C)NC2=O [plectasinMet13Nva] | 2.5 (≈ 10.9 µg/mL)
CC[C@@H]1NC(=O)[C@H](CC(=O)O)NC(=O)[C@H](CC(=O)O)NC(=O)[C@H](CCC(=O)O)NC(=O)[C@H](CC(=O)O)NC(=O)[C@H](Cc2c[nH]c3ccccc23)NC(=O)[C@@H]2CCCN2C(=O)CNC(=O)[C@H](CC(N)=O)NC(=O)[C@@H](NC(=O)CNC(=O)[C@H](Cc2ccccc2)NC(=O)CN)CSSC[C@@H]2NC(=O)[C@H](Cc3ccc(O)cc3)NC(=O)CNC(=O)CNC(=O)[C@H](CCCCN)NC(=O)[C@H](Cc3ccc(O)cc3)NC(=O)CNC(=O)[C@H](CCCCN)NC(=O)[C@H]([C@@H](C)CC)NC(=O)[C@H](CO)NC(=O)[C@H](CCCCN)NC(=O)[C@@H]3CSSC[C@@H](C(=O)N[C@@H](Cc4ccc(O)cc4)C(N)=O)NC(=O)[C@H](CCCCN)NC(=O)[C@H](CSSC[C@H](NC(=O)[C@H](CCC(N)=O)NC1=O)C(=O)N[C@@H](Cc1c[nH]cn1)C(=O)N[C@@H](CC(N)=O)C(=O)N[C@@H](Cc1c[nH]cn1)C(=O)N3)NC(=O)[C@H](C(C)C)NC(=O)[C@H](Cc1ccccc1)NC(=O)CNC(=O)CNC(=O)[C@H](CCCCN)NC(=O)[C@H](C)NC2=O [plectasinMet13Abu] | 2.5 (≈ 10.9 µg/mL)
CCCC[C@@H]1NC(=O)[C@H](CC(=O)O)NC(=O)[C@H](CC(=O)O)NC(=O)[C@H](CCC(=O)O)NC(=O)[C@H](CC(=O)O)NC(=O)[C@H](Cc2c[nH]c3ccccc23)NC(=O)[C@@H]2CCCN2C(=O)CNC(=O)[C@H](CC(N)=O)NC(=O)[C@@H](NC(=O)CNC(=O)[C@H](Cc2ccccc2)NC(=O)CN)CSSC[C@@H]2NC(=O)[C@H](Cc3ccc(O)cc3)NC(=O)CNC(=O)CNC(=O)[C@H](CCCCN)NC(=O)[C@H](Cc3ccc(O)cc3)NC(=O)CNC(=O)[C@H](CCCCN)NC(=O)[C@H]([C@@H](C)CC)NC(=O)[C@H](CO)NC(=O)[C@H](CCCCN)NC(=O)[C@@H]3CSSC[C@@H](C(=O)N[C@@H](Cc4ccc(O)cc4)C(N)=O)NC(=O)[C@H](CCCCN)NC(=O)[C@H](CSSC[C@H](NC(=O)[C@H](CCC(N)=O)NC1=O)C(=O)N[C@@H](Cc1c[nH]cn1)C(=O)N[C@@H](CC(N)=O)C(=O)N[C@@H](Cc1c[nH]cn1)C(=O)N3)NC(=O)[C@H](C(C)C)NC(=O)[C@H](Cc1ccccc1)NC(=O)CNC(=O)CNC(=O)[C@H](CCCCN)NC(=O)[C@H](C)NC2=O [plectasinMet13Nle] | 10 (≈ 43.8 µg/mL)

Values after ≈ are worked out from the molar mass of the structure shown.
